# Tests used:
# [1] = system: ovarian carcinoma (pdOVCA1); experiment: in vivo biological activity, pdOVCA1 inoculated i.p. in SCID mice; conditions: treatment at 7th, 14th, 21st day, 1,000 U/ml
# Method: The experiments were carried out using the cell line of ovarian carcinoma (pdOVCA1) (sensitive to the antiproliferative action of IFN) inoculated i.p. in mice belonging to the group SCID F, 3×10^6 cells/mouse. The experiment was effected using 3 distinct groups of animals, 6 mice per group:
# 1st group: treatment at the 7th, 14th and 21st day with recombinant human Interferone alpha 2a (IFN) at a concentration of 1,000 U/ml, as positive control;
# 2nd group: treatment at the 7th,14th and 21st day with the bioconjugate object of the present invention (HA-IFN) prepared as described in Example 3, at a concentration of 1,000 U/ml as equivalent IFN unit;
# 3rd group; represents the non-pharmacologically treated control but only inoculated with pdOVCA1s.
# [2] = system: human primary cell line of ovarian carcinoma (pdOVCA1); experiment: ATPlite cytotoxicity test, cell vitality; format: cell-based; conditions: pdOVCA1, 5 days incubation; 1,000, 500, 250 U/ml IFN equivalent; HA 323.5, 162.75, 81.375 μg/ml
# Method: The determination of the biological activity of the HA-IFN conjugate was effected by means of a method prepared ad hoc.
# The experiments were carried out on a human primary cell line of ovarian carcinoma (pdOVCA1), sensitive to the antiproliferative action of IFN. The cells were seeded at a concentration of 10,000 cells/well and incubated alone and in the presence of:
# HA-IFN bioconjugate prepared as in Example 3 at a concentration of 1,000, 500, 250 U/ml as equivalent IFN Unit;
# Recombinant human Interferon alpha 2a at a concentration of 1,000, 500, 250 U/ml;
# HA having a molecular weight of 200 kDa, i.e. the same used for preparing the conjugate, at a concentration of 323.5, 162.75, 81.375 μg/ml.
# After 5 days of incubation, the cell vitality was measured via the ATPlite cytotoxicity test. The results obtained are summarized in FIG. 4, where the cell vitality is expressed in percentage with respect to the level obtained for the cells incubated alone.
# [3] = mouse, in vivo
Substance,efficacy in vivo vs reference drug IFN [1],statistic significance vs the non-treated control [1],cytotoxic action (cell vitality vs cells incubated alone) [2],biodistribution in a longer time scale [3],"biodistribution, main fluorescence signal [3]","biodistribution, secondary fluorescence signal [3]"
"HA-IFN: hyaluronic acid (200 kDa) aldehyde derivative conjugated to recombinant human interferon alpha 2a, prevalently at the N-terminal end",greater efficacy in vivo,considerable significance,almost quantitatively maintained,,,
labeled conjugate according to Example 6: HA-interferon alpha 2a conjugate whose protein is marked with Cy5 fluorescent probe,,,,vesical accumulation,hepatic accumulation,less intense fluorescence in the adjacent pulmonary area
"recombinant human Interferon alpha 2a: recombinant human IFN alpha 2a, protein of about 20 kDa; reference drug [reference compound]",,no statistic significance,marked cytotoxic action,,,
